## Binding of CDR-mutated scFvs to a peptide of the spike HR2 region

Values reported by Engelhart et al. 2022, doi:10.1038/s41597-022-01779-4 (FLAb copy).

Target peptide (SARS-CoV-2 spike, HR2 region): PDVDLGDISGINAS

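The parent was found by panning a naive human phage display library on the peptide. Variants in AAYL50 differ from the parent at up to three CDR positions; double and triple changes were sampled at random. In AlphaSeq, yeast of one mating type display the scFv and yeast of the other type display the target. Pairs that bind mate more often; barcode pairs of the diploids are counted by sequencing. Read counts were normalised to the haploid input and turned into Kd by a linear fit to BCL2-family pairs of known affinity, for each replicate. There are three technical replicates.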

The variants keep the heavy chain, the linker and the frameworks of Ab-14 (scFv order VH, a 15-residue (Gly4Ser)3 linker, VL).
VH: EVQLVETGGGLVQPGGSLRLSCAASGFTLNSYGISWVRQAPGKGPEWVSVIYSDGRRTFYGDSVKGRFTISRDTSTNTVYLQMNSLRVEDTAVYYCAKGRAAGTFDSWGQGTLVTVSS
VL: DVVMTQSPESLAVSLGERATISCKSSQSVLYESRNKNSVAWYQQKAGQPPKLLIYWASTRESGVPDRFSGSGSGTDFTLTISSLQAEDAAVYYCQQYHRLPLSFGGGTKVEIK

Positions count from residue 1 of the parent VL; S28L puts L in place of S.
Values are log10 of the apparent Kd in nM; lower means stronger binding.
The mean shown is taken over the replicates in which the pair was detected.
A pair that was not seen in that replicate is written "nd"; this usually means weak binding, but a binder can also be missed.
Nonspecific signal, from three strains lacking the peptide, appeared in 18% of pairings of library AAYL50, centred on 4.19 (5% of these signals below 2.99); values are not corrected for it. For each scFv, signals with the empty controls are counted beside the result, with their mean in brackets.

changes | log10 Kd (nM) by replicate | log10 Kd (nM), mean | signal with controls
S28L+S38P+H98C | 2.92 / 2.87 / 2.08 | 2.63 | 0/9
Y31F+R60S+Q95Y | nd / nd / 2.79 | 2.79 | 1/9 (2.67)
V29I+R34Y+Q95A | 2.10 / 2.24 / 2.28 | 2.21 | 1/9 (2.89)
Q27W+S33M+Q95M | nd / 4.08 / nd | 4.08 | 2/9 (4.41)
S25L+L30Y+N35Y | -0.05 / 0.25 / 0.02 | 0.07 | 2/9 (6.03)
S33P+V39C+S103Q | 3.39 / 3.25 / 4.02 | 3.55 | 2/9 (4.39)
K36T+Q95M | nd / nd / nd | nd | 0/9
V29D+E32Q+Y97C | 1.28 / 1.03 / 1.37 | 1.22 | 2/9 (4.25)
W56C+A57Y+L102H | 6.10 / 3.99 / nd | 5.05 | 8/9 (4.22)
Q27E+S38H+E61F | 1.99 / 1.77 / 1.72 | 1.83 | 2/9 (3.85)
S38Q+V39G+Q96D | nd / nd / 4.24 | 4.24 | 4/9 (3.99)
E32D+A40W+T59E | nd / nd / nd | nd | 0/9
A40Y+A57D+Q96T | 3.70 / 3.51 / nd | 3.61 | 3/9 (4.48)
S25R+S33F+W56S | 0.28 / 0.51 / 0.38 | 0.39 | 0/9
Q27T+Y31N+E61C | 1.42 / 1.29 / 1.42 | 1.38 | 2/9 (3.30)
Q27N+E32V+S38F | nd / 3.40 / nd | 3.40 | 2/9 (3.11)
S25F+S26M+S103V | nd / nd / nd | nd | 0/9
L30D+S38T+Q95H | 4.86 / nd / 4.46 | 4.66 | 3/9 (4.64)
N37L+H98K+R99V | 1.72 / 2.14 / 1.43 | 1.76 | 1/9 (2.73)
Y31P+S38W+Q96W | nd / 4.58 / nd | 4.58 | 3/9 (4.49)
S33W+K36Q+A40N | nd / nd / nd | nd | 2/9 (3.80)
A57D+S58Q+S103C | nd / 4.17 / nd | 4.17 | 1/9 (2.52)
Q27V+N37V+V39N | nd / nd / nd | nd | 0/9
S25W+R34D+W56T | 0.36 / 0.55 / 0.37 | 0.43 | 1/9 (4.41)
Y31T+E32K+P101Y | nd / nd / nd | nd | 0/9
T59G+R99T+L102R | 3.54 / 3.01 / 3.46 | 3.34 | 5/9 (4.69)
S28M+E61L | 1.39 / 1.62 / 1.34 | 1.45 | 1/9 (2.93)
S26K+S38I+A57W | 3.91 / nd / nd | 3.91 | 1/9 (3.93)
S25T+T59N+R99L | 2.04 / 1.72 / 2.13 | 1.97 | 1/9 (4.29)
S26E+V29E+E32F | 0.63 / 0.90 / 0.69 | 0.74 | 0/9
E32P+A57Q+S58D | 0.59 / 0.76 / 0.76 | 0.70 | 1/9 (3.81)
K24E+L100D | 4.56 / 2.16 / 3.51 | 3.41 | 1/9 (3.49)
Q27G+E32G+N35E | 1.84 / 1.92 / 1.44 | 1.73 | 1/9 (2.87)
Y97E | 0.81 / 1.02 / 0.96 | 0.93 | 2/9 (4.66)
Q27Y+A57I+Q96K | nd / nd / nd | nd | 1/9 (2.78)
S26Y+Q27C+Y31Q | 1.21 / 1.76 / 1.19 | 1.39 | 0/9
V39Q+W56Q+E61Q | 2.97 / 3.77 / nd | 3.37 | 1/9 (4.72)
E61G+R99N+L102S | nd / nd / 5.37 | 5.37 | 4/9 (3.87)
V29W+A40T+P101Q | nd / nd / nd | nd | 5/9 (4.24)
K36S+N37L+L102M | 2.31 / 2.52 / 2.92 | 2.58 | 2/9 (4.43)